Among the data in patent US8420644B2, “Pharmaceutical composition intended for the prevention or for the treatment of cerebral oedemas” (Biocodex, priority 2005, dated 2013) are Mortality values, retold here.

A short description of this data set: Effect of the dose of triethyltin (dose finding). Format: in vivo, rat.

The structures appear in SMILES notation.

With `C[CH2][Sn]([Br])([CH2]C)[CH2]C`, the Mortality entry reads like this: (TET 3 mg/kg/day) “no mortality”; (TET 4 mg/kg/day) “mortality from the 4th day”.
